Assay results from US8530235B2, “Medium that supports culture of an oocyte and modulation of granulosa cell apoptosis” (Adelaide Research & Innovation Pty Ltd., priority 2005, dated 2013).

Tests used:
[1] = tested on: cumulus expansion of oocytectomised (OOX) complexes; assay: FSH-induced cumulus expansion score of OOX complexes; assay type: cell-based, mice; settings: score 0 (no expansion) to +4 (maximum expansion); mean ±SEM; OOX complexes with FSH
Procedure: Members of the TGF-β superfamily are prime candidates for the mouse cumulus expansion-enabling factor (CEEF). This study was conducted to examine TGF-β superfamily processes regulating cumulus expansion. COCs were collected from eGG-primed mice and the oocyte microsurgically removed to generate oocytectomised (OOX) complexes. An established scoring system was used to measure FSH-induced cumulus expansion; 0 (no expansion) to +4 (maximum expansion). […] The type-I receptors for GDF9 and […] are ALK5 and ALK4, respectively. We tested the ability of an ALK4/5/7 kinase inhibitor to neutralize cumulus expansion.

cumulus cells = assay: Cumulus cell apoptosis in oocytectomized complexes (OOX) and COC, TUNEL with confocal microscopy; assay type: cell-based, Bovine; settings: media supplemented with FSH (0.1 IU/ml), 24 h
Procedure: Bovine ovaries were collected from local abattoir and transported to the laboratory in warm saline (30-35° C.). Cumulus-oocyte complexes (COC) were aspirated from antral follicles (2- to 8-mm diameter) using an 18-gauge needle and a 10-ml syringe containing ˜2 ml aspiration media (Hepes-buffered Tissue Cultured Medium-199: TCM-199, ICN Biochemicals, Irvine, Calif., USA) supplemented with 50 μg/ml kanamycin (Sigma-Aldrish, St. louis, Mo.), 4 mg/ml fatty acid-free bovine serum albumin (FAF-BSA) (ICPbio ltd, Auckland, NZ). […]
CC apoptoic DNA was detected using TUNEl (Roche Diagnostic, Penzberg, Germany) according to the manufacturer's instructions. […]
Apoptosis in COC and OOX was visualised and quantified using confocal microscopy. Dual fluorescence emission from CC was detected using a Nikon C1 Confocal Scanning Head and a Nikon TE2000E microscope (Nikon, Tokyo, Japan). […]
In order to generate an accurate representation of the overall apoptotic incidence for all complexes, the depth of each complex was measured through a Z series to divide the construct into three percentiles (optical Z plane sections) at 25%, 50% and 75%. These optical section images were acquired and saved as independent colour channels (green, apoptotic cumulus fluorescence and red, nuclear cumulus fluorescence). […]

“FSH: Follicle stimulating hormone (Organon), 0.1 IU/ml [reference compound]” was tested. Which cumulus expansion score [1] did it give?
Its cumulus expansion score is 0.

And the “decrease in incidence of cumulus cell apoptosis in COCs” value (cumulus cells; COC without FSH 9%)?
The value was 6%.

What about the “decrease in incidence of cumulus cell apoptosis in OOXs” value (cumulus cells; OOX without FSH 35%) of the same substance?
Its value is 10%.
